Reference: US11045520B2, “Compositions and methods for topical delivery of pharmaceutical agents” (priority 2016, dated 2021)

Columns and labels:
human skin = test: Franz cell diffusion apparatus assay, ETA-treated vs control skin (Example 3); format: in vitro ADME; conditions: ETA-treated human skin compared to non-treated control, 24 hours
Method: To quantify the delivery efficacy after ETA application, Franz cell assays were performed pertaining to fluoresceine, sulforhodamine B, dextran (3K), and human insulin (5K). Permeation experiments with Franz diffusion cells were performed using human skin. The Franz diffusion cells were made of glass with a contact area of 1.35 cm^2, consisting of a donor compartment and a receptor compartment. The skin was mounted between the cell compartments and 2 O-ring shaped glasses were used to position the skin epidermis side-up and dermis side-down. The two cell compartments were held together with a clamp. […] It was kept at 37° C. on a heated plate. After 30 minutes of equilibration of the skin with the receptor solution, 200 μl of the drug solution was applied in the donor compartment with a pipet. The donor compartment was then covered with parafilm to prevent evaporation of the solvent. The receptor solution was continuously stirred using a spinning bar magnet at 200 rpm. Receptor solution samples, 0.2 ml aliquots, were withdrawn through the sampling port of the receptor compartment at various time intervals. The cells were refilled with a same amount of receptor solution to keep the volume of receptor solution constant during the experiment. The experiments were run for 24 hours. […]

[1] = system: human skin explants or xenograted human skin; test: Confocal imaging of fluorescent dye distribution in ETA-desquamated skin (Example 2); conditions: ETA 100 μg/mL treated vs untreated skin
Method: Human skin samples were fixed in 10% formaldehyde overnight and then embedded in paraffin. Samples were cut using a microtome to a thickness of 6 μM and baked on slides for 1 hour in a dry heat incubator at 58° C. Nuclei and eosinophillic structures were visualized by hematoxylin and eosin staining, respectively. The hematoxylin stains nuclei blue and eosins stains eosinophillic structures different shades of red. Histological images were taken with an inverted microscope.
The skin was either subjected to no treatment or application of ETA at 100 μg/mL.
To image the distribution of each dye in the human skin, human skin specimens were collected at 6, 12, 18 and 24 hours. Ordinary skin with intact S.C. and desquamated skin using ETA (methods previously described) were used. Frozen sections of human skin specimens were cut using a microtome to a thickness of 7 μM and DAPI was used for counter staining. Skin imaging was carried out at room temperature using Nikon confocal microscope equipped with NIS-Elements AR 3.10 software.

Substance: Dextran
- skin permeability, fluorescence in receptor compartment (human skin): increase in skin permeability
- skin permeability after removal of S.C. by ETA [1]: substantially increased
